ChEMBL document CHEMBL1122336, “Aromatic amidines: comparison of their ability to block respiratory syncytial virus induced cell fusion and to inhibit plasmin, urokinase, thrombin, and trypsin” (J Med Chem, 1983)

Biological target: Urokinase-type plasminogen activator (Homo sapiens, UniProt P00749)
Test: Inhibition constant against Urokinase

For `N=C(N)c1ccc2nc(Cc3nc4ccc(C(=N)N)cc4[nH]3)[nH]c2c1`, the Ki was 2.33 µM.
